{"sequences": {"note": "Chains of the proteins cited; added tags and fusions are not shown. Lines headed by an entry give the natural chain unless they say otherwise; changes in a name come on top.", "UniProt P33535, whole entry, looked up": "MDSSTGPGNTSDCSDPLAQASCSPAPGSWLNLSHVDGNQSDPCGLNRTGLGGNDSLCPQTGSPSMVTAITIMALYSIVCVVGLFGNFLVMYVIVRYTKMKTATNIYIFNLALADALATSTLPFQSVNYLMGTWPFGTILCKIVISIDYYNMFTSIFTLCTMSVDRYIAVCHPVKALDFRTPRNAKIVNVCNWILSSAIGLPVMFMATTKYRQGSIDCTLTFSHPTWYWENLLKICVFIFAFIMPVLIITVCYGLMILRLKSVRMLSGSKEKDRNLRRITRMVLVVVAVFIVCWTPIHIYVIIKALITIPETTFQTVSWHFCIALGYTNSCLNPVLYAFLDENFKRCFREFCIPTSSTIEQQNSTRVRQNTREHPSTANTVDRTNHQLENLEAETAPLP", "UniProt P33533, whole entry, looked up": "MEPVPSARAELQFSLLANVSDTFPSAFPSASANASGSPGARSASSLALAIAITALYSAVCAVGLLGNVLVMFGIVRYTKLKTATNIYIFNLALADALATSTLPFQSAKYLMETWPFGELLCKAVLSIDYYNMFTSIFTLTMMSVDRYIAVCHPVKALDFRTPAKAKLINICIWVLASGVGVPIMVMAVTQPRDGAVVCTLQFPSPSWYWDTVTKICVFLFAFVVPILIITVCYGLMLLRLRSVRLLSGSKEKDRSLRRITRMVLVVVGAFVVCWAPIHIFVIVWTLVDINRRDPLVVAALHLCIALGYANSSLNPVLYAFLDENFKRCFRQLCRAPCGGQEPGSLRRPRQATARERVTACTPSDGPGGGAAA", "UniProt P34975": "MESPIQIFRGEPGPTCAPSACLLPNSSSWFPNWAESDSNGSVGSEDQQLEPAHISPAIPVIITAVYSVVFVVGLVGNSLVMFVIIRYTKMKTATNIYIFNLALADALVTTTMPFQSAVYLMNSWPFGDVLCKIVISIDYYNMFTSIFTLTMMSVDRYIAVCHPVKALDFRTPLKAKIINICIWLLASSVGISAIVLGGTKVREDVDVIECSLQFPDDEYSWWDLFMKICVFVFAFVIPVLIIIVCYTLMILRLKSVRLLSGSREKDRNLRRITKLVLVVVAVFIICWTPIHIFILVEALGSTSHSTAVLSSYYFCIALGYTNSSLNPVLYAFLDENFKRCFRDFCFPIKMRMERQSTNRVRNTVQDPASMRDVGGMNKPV", "UniProt Q9R0C9, whole entry, looked up": "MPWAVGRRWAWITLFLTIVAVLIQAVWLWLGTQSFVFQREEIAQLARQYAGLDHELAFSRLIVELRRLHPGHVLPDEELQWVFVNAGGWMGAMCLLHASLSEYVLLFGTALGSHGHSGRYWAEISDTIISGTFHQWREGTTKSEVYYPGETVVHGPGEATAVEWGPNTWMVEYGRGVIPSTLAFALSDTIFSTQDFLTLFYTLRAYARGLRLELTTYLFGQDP"}, "source": "BindingDB's records for 2536439", "biological_target": "Delta-type opioid receptor/Kappa-type opioid receptor/Mu-type opioid receptor/Sigma non-opioid intracellular receptor 1 (Rattus norvegicus, UniProt P33535+P33533+P34975+Q9R0C9)", "data": [{"smiles": "CN(C(=O)Cc1ccc(Cl)c(Cl)c1)[C@@H]1CCCC[C@H]1N1CCCC1", "values": [{"measurement": "IC50", "value": 12, "unit": "µM"}]}]}
